Hits are enriched below; roughly 0.42% of the tested compounds scored in any of these assays.
Vif-APOBEC3F blk = blocks the Vif interaction with APOBEC3F; Potency, µM (top dose mostly 46.1 µM), for the others: top-dose activity, negative = active; HeLa A3F-eYFP + Vif (tagged APOBEC3F with the HIV-1 protein that degrades it), YFP fluorescence increase; 390,000 tested, 0.2% active; note: % of control where 0% means no effect; nearly all actives have a fitted effect of over 65% in size
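Fluorescence increase (Ex 488/Em 500-530) after overnight compound treatment at 37 deg C flags inhibition of Vif-driven A3F-eYFP loss in stable HeLa A3F-eYFP/Vif cells seeded overnight beforehand.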
Epigenetic derep = epigenetic control regulation, reporter derepression | murine LDR cells, GFP reporter derepression, 30 h | Potency, µM (doses to about 53.9 µM), inactives show at the top dose GFP activation, usual class: activators | 280,000 tested, 0.2% active | AID 1865; note: % of control where 0% means no effect; nearly all actives have a fitted effect of over 60% in size
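Murine LDR cells carrying a silenced, genomically integrated CMV-driven GFP reporter were exposed to compound for 30 hours at 37 C. After PBS washes, GFP-positive cells (20–120 um objects) were counted by laser-scanning microplate cytometry.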
Rango dissoc inh = inhibitors of RanGTP-induced Rango-importin beta complex dissociation. AID 540253. Potency, µM (highest dose often 46.1 µM), without a hit: at the highest dose activity change, negative = inhibition. 340,000 tested, 0.071% active. O95149+P62826. Biochemical FRET Rango-importin beta, RanGTP-induced dissociation; calls by dose curve; note: % of control where 0% means no effect; nearly all actives have a fitted effect of over 45% in size
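Recombinant Rango FRET biosensor (EYFP–snurportin 1 IBB–cerulean CFP10) at 0.1 uM premixed with 0.25 uM importin beta in PBS, 1 mM DTT, 0.02% Tween-20, 0.1% BSA. Compound added 5 min; RanGTP-RCC1 (0.6 uM Ran, 2 mM GTP, 0.2 uM RCC1) then triggers release, read at 45 min.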
Vif-APOBEC3G blk = blocks the Vif interaction with human APOBEC3G; Potency, µM (doses to about 46.1 µM), for inactives: top-dose activity, negative = active, hits mostly inhibitors; HeLa A3G-eYFP + Vif (tagged APOBEC3G with the HIV-1 protein that degrades it), YFP fluorescence, overnight; Q9HC16; 410,000 tested, 0.076% active; note: % is set by controls: 0 for no effect and ±100 for the full control effect; nearly all actives have a fitted effect of over 60% in size
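Read-out is eYFP fluorescence (Ex 488/Em 500-530) from Vif-expressing HeLa A3G-eYFP cells; more signal means A3G escaped Vif-mediated degradation. Cells plated overnight, compound pinned in, incubated overnight at 37 deg C.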
Rango-impB inh = inhibitors of Rango-importin beta complex formation | Rango CFP/YFP FRET sensor + importin beta, 45 min | Potency, µM (top dose mostly 92.2 µM), for inactives: at the highest dose inhibition of complex formation | 340,000 tested, 0.031% active; calls by dose curve;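 note: 0% = DMSO wells and 100% = buffer wells lacking importin beta; nearly all actives have a fitted effect of over 15% in size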
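Inhibition scored from the CFP 486 nm/YFP 530 nm FRET ratio 45 min after adding 0.125 microM importin beta to 50 nM Rango biosensor preincubated 5 min with compound (room temperature, PBS with DTT, Tween-20, BSA). No-importin wells as positive control.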
* = called active by the depositor; [ ] = remark or other dose. Unless noted, calls come from the whole dose curve; as a rule, active = well fitted curve in the direction sought with a large enough effect; inconclusive = small, poorly fitted or top-dose-only effect, or another doubt; inactive = no such curve, though single readings can be large; an effect the other way counts as inactive or inconclusive. Potency is the fitted concentration of half-maximal effect.

O=c1[nH]c(CN2CCN(c3ccccc3)CC2)nc2scc(-c3ccccc3)c12 was read as Vif-APOBEC3F blk 22µM*, Epigenetic derep inconclusive, Rango dissoc inh -13%, Vif-APOBEC3G blk inconclusive and Rango-impB inh 1%.
`COc1ccc(N2CCN(Cc3nc4scc(-c5ccccc5)c4c(=O)[nH]3)CC2)cc1` gave Vif-APOBEC3F blk -22%, Epigenetic derep 0%, Rango dissoc inh 12%, Vif-APOBEC3G blk -1% and Rango-impB inh 0%.
For CCN(CC)c1ccc(/C=C2\SC(N)=NC2=O)cc1 the results were Vif-APOBEC3F blk inconclusive, Rango dissoc inh inconclusive, Vif-APOBEC3G blk 8.9µM* and Rango-impB inh inconclusive.
NC1=NC(=O)/C(=C/c2ccc(OCC(=O)O)cc2)S1 was read as Vif-APOBEC3F blk -5%, Rango dissoc inh -13%, Vif-APOBEC3G blk -1% and Rango-impB inh 0%.
O=c1[nH]c(Nc2ccccc2)cc2cc(Br)ccc12 was read as Vif-APOBEC3F blk 6%, Rango dissoc inh inconclusive, Vif-APOBEC3G blk -31% and Rango-impB inh inconclusive.
Screening CC(=O)c1cccc(-c2ccc3c(=O)[nH]c(Nc4ccccc4)cc3c2)c1 returned Vif-APOBEC3F blk -6%, Rango dissoc inh 12µM*[inhibitor], Vif-APOBEC3G blk -3% and Rango-impB inh inconclusive.
For COC(=O)/C=C/c1cc(O)ccc1O the results were Epigenetic derep 13%.
Screening C[C@H](NC(=O)[C@H](Cc1ccccc1)n1c(=O)[nH]c2ccccc2c1=O)C(=O)N1CCC[C@H]1C(=O)O returned Vif-APOBEC3F blk -18%, Rango dissoc inh 1%, Vif-APOBEC3G blk 0% and Rango-impB inh -2%.
For CSCC[C@H](NC(=O)[C@H](Cc1ccccc1)n1c(=O)[nH]c2ccccc2c1=O)C(=O)N1CCC[C@@H]1C(=O)O the results were Vif-APOBEC3F blk -2%, Rango dissoc inh 19%, Vif-APOBEC3G blk 10µM* and Rango-impB inh 5%.
Screening CCCN(CCC)C(=O)Cn1c(=O)n(-c2ccc(CC)cc2)c(=O)c2ccc(C(=O)NCCc3ccccc3)cc21 returned Vif-APOBEC3F blk -6%, Epigenetic derep 5% and Vif-APOBEC3G blk -5%.
For CCN(CC)c1ccc(/C=C/c2sc3ccccc3[n+]2CCCCI)cc1 the results were Vif-APOBEC3G blk -11%.
For Cc1ccc(-n2nc3c(N4CCCC(C(=O)NCc5ccccc5C)C4)nnc(C)c3c2C)cc1 (stereo not given) the results were Vif-APOBEC3F blk 13µM*, Epigenetic derep -2% and Vif-APOBEC3G blk -9%.

Part of the list above in order of number of heavy atoms, falling:
Screening C[C@H](NC(=O)[C@H](Cc1ccccc1)n1c(=O)[nH]c2ccccc2c1=O)C(=O)N1CCC[C@H]1C(=O)O returned Vif-APOBEC3F blk -18%, Rango dissoc inh 1%, Vif-APOBEC3G blk 0% and Rango-impB inh -2%.
For CCN(CC)c1ccc(/C=C2\SC(N)=NC2=O)cc1 the results were Vif-APOBEC3F blk inconclusive, Rango dissoc inh inconclusive, Vif-APOBEC3G blk 8.9µM* and Rango-impB inh inconclusive.
For COC(=O)/C=C/c1cc(O)ccc1O the results were Epigenetic derep 13%.

Other entries follow.
For CCNC(=O)N1c2ccc(OCC)cc2C(C)=CC1(C)C the results were Vif-APOBEC3F blk -5%, Epigenetic derep 2%, Rango dissoc inh 2.1µM*, Vif-APOBEC3G blk 2% and Rango-impB inh inconclusive.
Nc1c(C(=O)c2ccc(Cl)cc2)sc2nc3c(cc12)CCC3 was read as Vif-APOBEC3F blk 25µM*, Epigenetic derep inconclusive, Rango dissoc inh inconclusive, Vif-APOBEC3G blk -8% and Rango-impB inh inconclusive.
`Nc1c(C(=O)O)sc2nc3c(cc12)CCCC3` gave Vif-APOBEC3F blk 2%, Epigenetic derep -1%, Rango dissoc inh -19%, Vif-APOBEC3G blk 3% and Rango-impB inh inconclusive.
For O=C1c2cccc3c(N4CCCCC4)ccc(c23)C(=O)N1c1ccc(O)cc1 the results were Vif-APOBEC3F blk inconclusive, Epigenetic derep inconclusive, Rango dissoc inh inconclusive, Vif-APOBEC3G blk 7.9µM* and Rango-impB inh inconclusive.
Screening O=C(O)c1ccc(N2CCCCCC2)c(N2C(=O)c3ccccc3C2=O)c1 returned Vif-APOBEC3F blk -2%, Epigenetic derep 0%, Rango dissoc inh -5%, Vif-APOBEC3G blk -1% and Rango-impB inh 5%.
Screening O=C1c2cccc3c(N4CCCCC4)ccc(c23)C(=O)N1c1ccccc1O returned Vif-APOBEC3F blk 8.9µM*, Epigenetic derep inconclusive, Rango dissoc inh inconclusive, Vif-APOBEC3G blk 14% and Rango-impB inh inconclusive.
For Cc1ccc2c(c1)N(C(=O)N1CCC(C(=O)NCCc3ccc(Cl)cc3)CC1)CC(C)O2 (stereo not given) the results were Vif-APOBEC3F blk -1%, Epigenetic derep 0% and Vif-APOBEC3G blk 0%.
`COc1ccc([C@H]2CC(=O)C=C(c3ccc(NC(C)=O)cc3)C2)cc1OC` gave Vif-APOBEC3F blk 3%, Rango dissoc inh 7%, Vif-APOBEC3G blk -4% and Rango-impB inh 0%.
Screening CC(=O)Nc1ccc(C2=CC(=O)C[C@H](c3ccc(Cl)cc3)C2)cc1 returned Vif-APOBEC3F blk 22µM*, Rango dissoc inh 29%, Vif-APOBEC3G blk inconclusive and Rango-impB inh 4%.
Screening CC(=O)N(/N=C1\Sc2ccccc2C1=O)c1ccccc1C returned Vif-APOBEC3F blk inconclusive, Epigenetic derep 11%, Rango dissoc inh 8.2µM*, Vif-APOBEC3G blk -11% and Rango-impB inh inconclusive.
`CCN(CC)C(=O)c1ccc(/C=C/c2c[nH]c3ccccc23)[n+](C)c1` gave Vif-APOBEC3F blk 13µM*, Epigenetic derep inconclusive, Rango dissoc inh inconclusive, Vif-APOBEC3G blk inconclusive and Rango-impB inh inconclusive.
Screening CC[n+]1c(/C=C/c2c[nH]c3ccccc23)ccc2cc(C)ccc21 returned Vif-APOBEC3F blk -124%, Epigenetic derep 4.5µM*, Rango dissoc inh inconclusive, Vif-APOBEC3G blk inconclusive and Rango-impB inh inconclusive.
CC(C)(C)n1ncc2c(=O)n(Cc3ccc(Cl)cc3F)cnc21 was read as Vif-APOBEC3G blk -6%.
CCCOC(=O)C1=C(C)CS[C@@H]2[C@H](NC(=O)COc3ccccc3)C(=O)N12 was read as Vif-APOBEC3G blk -3%.
Screening Cc1ccc(S(=O)(=O)Nc2nc3ccccc3nc2Nc2cccc(S(=O)(=O)N3CCCC3)c2)cc1 returned Vif-APOBEC3F blk 7.1µM*, Epigenetic derep 1%, Rango dissoc inh inconclusive, Vif-APOBEC3G blk -268% and Rango-impB inh inconclusive.
Screening Cc1ccccc1C([O-])=Nc1ccc[n+](-c2nc3ccccc3nc2NS(=O)(=O)c2ccccc2)c1 returned Vif-APOBEC3F blk 13µM*, Epigenetic derep -1%, Rango dissoc inh -20%, Vif-APOBEC3G blk -7% and Rango-impB inh inconclusive.
CC(=O)Nc1ccc(Nc2nc3ccccc3nc2NS(=O)(=O)c2ccccc2)cc1 was read as Vif-APOBEC3F blk -13%, Epigenetic derep -1%, Rango dissoc inh -29%, Vif-APOBEC3G blk -27% and Rango-impB inh inconclusive.
Cc1cccc(C)c1Nc1nc2ccccc2nc1NS(=O)(=O)c1ccccc1 was read as Vif-APOBEC3F blk 11µM*, Epigenetic derep 1% and Vif-APOBEC3G blk -15%.
NS(=O)(=O)c1cccc(NC(=O)CCCNC(=O)c2ccc(Cl)cc2)c1 was read as Vif-APOBEC3F blk 1%, Rango dissoc inh 8%, Vif-APOBEC3G blk 0% and Rango-impB inh 16µM*.

Source: PubChem BioAssay (National Center for Advancing Translational Sciences (NCATS))
